This is an account of results in ChEMBL document CHEMBL4028873, “The Discovery of a Dual TTK Protein Kinase/CDC2-Like Kinase (CLK2) Inhibitor for the Treatment of Triple Negative Breast Cancer Initiated from a Phenotypic Screen” (J Med Chem, 2017).

Each structure is given as a SMILES string.

Series [1] is described as follows: Metabolic stability in rat liver S9 fraction assessed as percent of compound remaining after 60 mins. The class given is ADME, tissue-based. The settings on record: read-out: Stability.
A short description of series [2]: Metabolic stability in human liver S9 fraction assessed as percent of compound remaining after 60 mins. The class given is ADME, tissue-based. Particulars: read-out: Stability.
Series [3] in a line: Clearance in rat at 2 mg/kg, iv. The class given is ADME, organism-based. The settings on record: in vivo.
The nature of series [4]: Volume of distribution at steady state in rat at 2 mg/kg, iv. The class given is ADME, organism-based. Particulars: in vivo, read-out: Vdss.
Series [5] in a line: Mean residence time in rat at 2 mg/kg, iv. The settings on record: in vivo. Format: ADME, organism-based.
Series [6] can be described thus: Clearance in SCID mouse at 10 mg/kg, iv. The class given is ADME, organism-based. The settings on record: in vivo.
Series [7] in a line: Mean residence time in SCID mouse at 10 mg/kg, iv. The class given is ADME, organism-based. The settings on record: in vivo.

By clearance is commonly meant the rate of elimination divided by the concentration. Read a low clearance as a low capacity for elimination. By MRT is commonly meant a mean duration of stay, worked out from the concentration-time curve.

Take `CNC(=O)c1ccc(-c2c[nH]c3nc(Nc4ccc(C(=O)NC)cc4OC)nc(OC4CCCC4)c23)cc1`: the remaining at 1 h was found to be 87% in series [1] and 79% in series [2]. Besides, the clearance in series [3] came out at 61.3 mL/min/kg; in series [6] it was 63.1 mL/min/kg. The Vd in series [4] was 4 L/kg. Further, the values for the MRT in series [5] and in series [7] were 1.1 h and 0.36 h, respectively.

For the molecule `COc1cc(C(=O)NCCO)ccc1Nc1nc(OC2CCCC2)c2c(-c3ccc4nc(C)oc4c3)c[nH]c2n1`, the remaining at 1 h in series [1] is 80%; in series [2], 90%. Further, the results for the clearance in series [3] and in series [6] were 50.8 mL/min/kg and 31.6 mL/min/kg, respectively. Further, the Vd in series [4] came to 3.9 L/kg. Besides, the figures for the MRT in series [5] and in series [7] were 1.3 h and 0.59 h, respectively.

In the case of `CNC(=O)c1ccc(Nc2nc(OC3CC3)c3c(-c4ccc5nc(C)oc5c4)c[nH]c3n2)c(OC)c1`, the figures for the remaining at 1 h in series [1] and in series [2] were 63% and 75%, respectively. Also, the clearance in series [3] was 11.4 mL/min/kg; in series [6], 10.4 mL/min/kg. The Vd in series [4] was 1.5 L/kg. Besides, the values for the MRT in series [5] and in series [7] were 2.5 h and 3.1 h, respectively.
